Reference: patent publication US12397036B2, “Peptide exchange protein” (Cambridge Enterprise Limited, priority 2018, dated 2025)

Tests used:
[1] = target: T1, Her2 (Homo sapiens, UniProt P04626); assay: Binding of recombinant TAPBPR proteins to HeLaM, HeLaM+Her2 and HeLaM^Her2KO cells
T1 construct: HeLaM cells which naturally express Her2; endogenous in cells; host or cells: HeLaM, HeLaM+Her2 (over-expressing), HeLaM-Her2-KO (negative control)

[2] = target: T2, HLA-A2 (Homo sapiens, UniProt P04439, D140Y/D185E/D98H/E176V/E277Q/G131W/G231S/I119V/I121R/I166T/I218V/L300P/L318F/N151K/N90K/P208A/P217A/Q86G/Q94H/R138H/R169H/T345S); assay: NLV* and YLL* viral peptide loading on HeLaM-ABC^KO cells -/+ HLA-A2; assay type: cell-based
T2 construct: expressed in transfected cells; host or cells: HeLaM-HLA-ABC-KO

[3] = target: T3, HLA-A2 on SKBR3 and MCF-7 cells (Homo sapiens, UniProt P04439, D140Y/D185E/D98H/E176V/E277Q/G131W/G231S/I119V/I121R/I166T/I218V/L300P/L318F/N151K/N90K/P208A/P217A/Q86G/Q94H/R138H/R169H/T345S); assay: YLL* peptide loading on breast cancer cell lines; assay type: cell-based; conditions: 100 nM protein
T3 construct: endogenous in cells; host or cells: SKBR3 and MCF-7

B1: TAPBPR-Her2-scFv: recombinant TAPBPR fused to a scFv specific for Her2; SEQ ID NO: 8 (protein)
chain: MGTQEGWCLLLCLALSGAAETKPHPAEGQWRAVDVVLDCFLVKDGAHRGALASSEDRARASLVLKQVPVLDDGSLEDFTDFQGGTLAQDDPPIIFEASVDLVQIPQAEALLHADCSGKEVTCEISRYFLQMTETTVKTAAWFMANVQVSGGGPSISLVMKTPRVAKNEVLWHPTLNLPLSPQGTVRTAVEFQVMTQTQSLSFLLGSSASLDCGFSMAPGLDLISVEWRLQHKGRGQLVYSWTAGQGQAVRKGATLEPAQLGMARDASLTLPGLTIQDEGTYICQITTSLYRAQQIIQLNIQASPKVRLSLANEALLPTLICDIAGYYPLDVVVTWTREELGGSPAQVSGASFSSLRQSVAGTYSISSSLTAEPGSAGATYTCQVTHISLEEPLGASTQVVPPERRHVGGGGSGGGGSGGGGSTSADLGSRAMAQVQLVQSGAEVKKPGESLKISCKGSGYSFTSYWIAWVRQMPGKGLEYMGLIYPGDSDTKYSPSFQGQVTISVDKSVSTAYLQWSSLKPSDSAVYFCARHDVGYCSSSNCAKWPEYFQHWGQGTLVTVSSGGGGSGGGGSGGGGSQSVLTQPPSVSAAPGQKVTISCSGSSSNIGNNYVSWYQQLPGTAPKLLIYDHTNRPAGVPDRFSGSKSGTSASLAISGFRSEDEADYYCASWDYTLSGWVFGGGTKLTVLGAAAGGGGS
modifications: TAPBPR-Her2scFv
**Q.** How did the “binding to HeLaM cells which naturally express Her2, compared to soluble TAPBPR alone” value [1] turn out when B1 was run?
**A.** Its value is “increased binding”.

**Q.** And the “binding to Her2-deficient HeLaM cells” value ([1]; 100 nM recombinant protein)?
**A.** The value was “no binding at all”.

**Q.** What about the “binding to cells over-expressing Her2” value ([1]; HeLaM+Her2) of the same molecule?
**A.** Its value is “Very strong binding”.

**Q.** What about the “efficiency of NLV* and YLL* loading relative to soluble TAPBPR” value [2] of the same molecule?
**A.** Its value is “more efficient at loading these peptides than soluble TAPBPR alone”.

**Q.** What about the “peptide loading relative to soluble TAPBPR on breast cancer cell lines” value [3] of the same molecule?
**A.** The value was “more efficient that soluble TAPBPR”.

**Q.** And the “peptide loading relative to soluble TAPBPR on breast cancer cell lines” value ([3]; listed as TAPBPR-her 2 antibody fusion protein)?
**A.** Its value is “superior to the soluble TAPBPR protein alone”.
